Data: US10618902B2, “Substituted pyrido[2,3-d]pyrimidines as inhibitors of protein kinases” (Celgene CAR LLC, priority 2013, dated 2020)

By UniProt entry, the sequences of proteins in these tests, tags left out. Residues count along the entry.
UniProt P22455, 460-802: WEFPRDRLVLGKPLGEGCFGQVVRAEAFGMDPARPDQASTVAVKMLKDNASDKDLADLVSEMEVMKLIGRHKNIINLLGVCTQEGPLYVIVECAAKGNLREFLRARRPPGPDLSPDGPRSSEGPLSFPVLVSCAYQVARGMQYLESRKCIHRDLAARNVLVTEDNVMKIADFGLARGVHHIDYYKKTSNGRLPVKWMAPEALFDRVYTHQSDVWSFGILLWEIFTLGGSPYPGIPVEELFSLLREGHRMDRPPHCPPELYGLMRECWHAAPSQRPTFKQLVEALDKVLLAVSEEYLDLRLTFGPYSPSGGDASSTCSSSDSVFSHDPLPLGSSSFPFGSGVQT

Biological target: FGFR4 intact protein (Homo sapiens (Human), UniProt P22455)
Settings: method a: FGFR4 from SignalChem; 10-fold excess of compound, 60 min

SMILES	MS FGFR4 (mass modification)
C=CC(=O)Nc1cccc(Nc2ncc3c(n2)N(Cc2cccc(NC(=O)CC)c2)C(=O)N(c2c(Cl)c(OC)cc(OC)c2Cl)C3)c1 [Compound I-232]	G (a mass modification ≤30%)
C=CC(=O)Nc1ccccc1Nc1ncc2c(n1)N(Cc1cccc(NC(=O)CC)c1)C(=O)N(c1c(Cl)c(OC)cc(OC)c1Cl)C2 [Compound I-1]	E (a mass modification of ≥70%)
C=CC(=O)NC1CCCCC1Nc1ncc2c(n1)N(Cc1cccc(NC(=O)CC)c1)C(=O)N(c1c(Cl)c(OC)cc(OC)c1Cl)C2 (racemic) [Compound I-7]	F (a mass modification of 31-69%)
